In PubChem BioAssay AID2796 (The Scripps Research Institute Molecular Screening Center, 2010) one finds activation data, which are given here for 30 compounds.

By UniProt entry, the sequences of proteins in these tests, tags left out.
UniProt P35869, whole entry: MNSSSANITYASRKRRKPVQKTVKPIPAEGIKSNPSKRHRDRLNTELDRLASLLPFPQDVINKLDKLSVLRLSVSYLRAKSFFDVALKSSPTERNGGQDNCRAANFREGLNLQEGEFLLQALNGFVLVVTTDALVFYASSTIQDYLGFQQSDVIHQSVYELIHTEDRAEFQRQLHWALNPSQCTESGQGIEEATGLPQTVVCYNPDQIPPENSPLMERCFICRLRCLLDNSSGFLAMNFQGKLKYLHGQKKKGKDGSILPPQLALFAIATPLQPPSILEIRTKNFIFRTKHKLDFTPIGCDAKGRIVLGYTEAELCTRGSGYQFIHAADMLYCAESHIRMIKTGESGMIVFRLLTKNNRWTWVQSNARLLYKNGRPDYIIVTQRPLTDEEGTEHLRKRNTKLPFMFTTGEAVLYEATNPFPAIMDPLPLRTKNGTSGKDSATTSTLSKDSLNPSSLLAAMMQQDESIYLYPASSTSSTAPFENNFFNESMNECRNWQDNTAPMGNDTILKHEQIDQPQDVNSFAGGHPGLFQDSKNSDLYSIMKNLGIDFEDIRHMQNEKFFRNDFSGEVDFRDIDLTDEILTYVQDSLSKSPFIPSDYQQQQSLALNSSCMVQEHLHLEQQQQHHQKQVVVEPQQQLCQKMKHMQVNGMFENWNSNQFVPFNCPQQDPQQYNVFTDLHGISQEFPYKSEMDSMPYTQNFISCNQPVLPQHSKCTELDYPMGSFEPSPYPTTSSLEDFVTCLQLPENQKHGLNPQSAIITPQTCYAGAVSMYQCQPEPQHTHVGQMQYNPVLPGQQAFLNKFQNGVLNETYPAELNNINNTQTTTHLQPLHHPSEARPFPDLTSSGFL

Structures are written as SMILES. This is a selection; strong and weak results do not stand in their true shares. The source made the active and inactive calls. No stated cut-off is given here; in the data, active means activation above about 47%; inactive means the rest.

This experiment has as its target Aryl hydrocarbon receptor (Homo sapiens) (UniProt P35869). Put plainly: AHR activators, primary screen, cell-based, luminescence, luciferase reporter, human (AID 2796).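 Further: 0% = vehicle wells and 100% = reference agonist.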 The settings on record: AHR-responsive luciferase reporter cells, at 5 µM, hits give high values.
Turning to `Fc1ccccc1NC1CCN(Cc2ccccc2)CC1`, the activation was inactive: 2.12%.
For the compound `Cc1ccc(C(=O)NCC2(N3CCCCC3)CCCCC2)o1`, the activation was inactive: -0.5%.
For `COc1cc(OC)cc(C(=O)NCC2(N3CCCCC3)CCCCC2)c1` the value was inactive: 9.34%; for `CN(C)c1ccc(C(=O)NCC2(N3CCCCC3)CCCCC2)cc1`, inactive: 3.53%; for `O=C(NCC1(N2CCCCC2)CCCCC1)c1ccco1`, inactive: -1.72%.
Take `CCN1CCC(Nc2cccc(F)c2)CC1`: the activation was inactive: -3.41%.
Take `O=C(O)C1(Nc2ccccc2)CCN(Cc2ccccc2)CC1`: the activation is inactive: 0.69%.
Turning to `CC(C)(C)OC(=O)N1CCC(Nc2ccccc2)CC1`, the activation is inactive: 0.33%.
Turning to `CCCOc1ccc(C(=O)NCC2(N(C)C)CCCCC2)cc1`, the activation was inactive: 1.54%.
With `CN1CCC(Nc2ccc(F)c(Cl)c2)CC1`, the activation is inactive: -1.83%.
On to `CCOc1ncccc1C(=O)NCC1(N2CCOCC2)CCCCC1`, for which the activation is inactive: 0.26%.
For `CN1CCC(Nc2ccc(Cl)cc2)CC1` the value was inactive: 0.73%; for `CCCOc1ccc(C)cc1CN(CCCl)CCCl`, inactive: 0.14%.
Regarding `COc1cc(OC)cc(C(=O)NCC2(N3CCOCC3)CCCCC2)c1`, the activation is inactive: 5.7%.
For the compound `COc1cccc(C(=O)N(c2cc(C)cc(C)c2)C2CCN(C(=O)OC(C)(C)C)CC2)c1`, the activation is inactive: 1.23%.
With `CCC(CO)(C(=O)OC1CN2CCC1CC2)c1ccccc1` (stereo not given) the figure was inactive: -0.3%; with `COc1ccc(C(=O)NCC2(N3CCOCC3)CCCCC2)cc1OC`, inactive: 5.12%; with `COc1cc(C(=O)NCC2(N3CCOCC3)CCCCC2)cc(OC)c1C`, inactive: 5.07%.
For `O=C(NCC1(N2CCOCC2)CCCCC1)c1cc(Br)ccc1Cl` the value was inactive: -0.68%; for `O=C(OC1CN2CCC1CC2)C1c2ccccc2C=Cc2ccccc21` (stereo not given), inactive: 0.82%; for `CCc1cc(C(=O)NCC2(N3CCCCC3)CCCCC2)sc1C`, inactive: 3.43%.
`CCOC(=O)N1CCC(Nc2ccc(C)cc2)CC1`: the activation was inactive: -1.46%.
With `N/C(=N\O)c1c(N)no[n+]1[O-]`, the activation was inactive: 8.15%.
For `N#Cc1ccc(C(=O)NCC2(N3CCCCC3)CCCCC2)cc1`, the activation is inactive: -0.76%.
Turning to `CC(C)(C)OC(=O)N1CCC(N(C(=O)c2ccccc2)c2ccc(Cl)cc2)CC1`, the activation was inactive: 1.08%.
On to `CN(C)C1(CNC(=O)c2cccc(C#N)c2)CCCCC1`, for which the activation is inactive: 0.19%.
For `CCCN1CCC(Nc2cc(OC)cc(OC)c2)CC1` the value was inactive: 3.1%.
As to `c1ccc(CN2CCC(Nc3ccccc3)CC2)cc1`, the activation is inactive: 1.22%.
`N#CC1(Nc2ccccc2)CCN(CCc2ccccc2)CC1`: the activation is inactive: 0.07%.
With `CCN1CCC(Nc2ccc(Cl)cc2)CC1`, the activation is inactive: -0.78%.
